pKi: −log10 of the molar value.
Target: Mu-type opioid receptor (Rattus norvegicus, UniProt P33535)
Experiment: Displacement of [3H]DAMGO from Opioid receptor mu 1 of rat brain membranes
Assay type: cell membranes, Membrane
In short: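 Rat brain membranes labelled with [3H]DAMGO. Incubation 4 h at 25 °C in 50 mM Tris-HCl pH 7.4 with protease inhibitor cocktail. Nonspecific binding defined with 20 μM levallorphan. 8–10 test concentrations, run twice; IC50 and slope factor derived.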

Protein sequences, listed by entry. Tags and fused reporters are not part of them.
UniProt P33535, whole entry: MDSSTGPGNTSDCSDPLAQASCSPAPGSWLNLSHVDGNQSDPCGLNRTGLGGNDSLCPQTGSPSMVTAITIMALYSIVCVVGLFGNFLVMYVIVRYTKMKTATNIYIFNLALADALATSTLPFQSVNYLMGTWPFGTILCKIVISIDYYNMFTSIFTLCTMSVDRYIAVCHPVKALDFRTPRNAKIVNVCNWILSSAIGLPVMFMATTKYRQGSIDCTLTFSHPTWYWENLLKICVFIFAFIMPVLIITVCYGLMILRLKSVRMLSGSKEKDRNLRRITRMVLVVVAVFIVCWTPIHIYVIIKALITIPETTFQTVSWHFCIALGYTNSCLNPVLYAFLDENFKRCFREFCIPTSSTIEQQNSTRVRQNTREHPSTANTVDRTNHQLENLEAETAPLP

## Oc1ccc2c3c1O[C@H]1c4[nH]c5ccccc5c4C[C@@]4(O)[C@@H](C2)N(CC2CC2)CC[C@]314 [NALTRINDOLE]
  pKi: 7.30

Source: ChEMBL document CHEMBL1131041, “Synthesis, opioid receptor binding, and bioassay of naltrindole analogues substituted in the indolic benzene moiety” (J Med Chem, 1998)
